From patent publication US20090118274A1, “MONOCYCLIC AMINOPROPYL TETRAHYDRO-PYRAZOLO-PYRIDINE MODULATORS OF CATHEPSIN S” (priority 2007, published 2009)

Chains of the proteins cited; added tags and fusions are not shown. Residues count along the entry.
UniProt P25774, 115-331: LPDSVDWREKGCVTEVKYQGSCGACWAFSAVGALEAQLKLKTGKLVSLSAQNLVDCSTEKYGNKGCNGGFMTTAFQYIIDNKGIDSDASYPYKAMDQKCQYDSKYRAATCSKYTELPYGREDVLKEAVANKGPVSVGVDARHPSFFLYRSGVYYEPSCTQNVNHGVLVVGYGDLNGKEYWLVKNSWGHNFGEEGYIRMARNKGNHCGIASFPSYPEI

Biological target: T1, Recombinant human cathepsin S (CatS) (Homo sapiens, UniProt P25774)
T1 construct: made in house
Experiment: Recombinant human cathepsin S (CatS) fluorogenic substrate inhibition assay
Type: biochemical
Description: Recombinant human cathepsin S (CatS) was expressed in the baculovirus system and purified in one step with a thiopropyl-sepharose column. […] The assay is run in 150 mM sodium acetate pH 5.0 containing 1.5 mM DTT and 150 mM NaCl. […] Measurements are taken every min for 20 min. The rate is calculated from the slope of the increase in fluorescence and the percent inhibition is calculated from this.

`CS(=O)(=O)N1CCc2c(c(-c3ccc(C(F)(F)F)c(CNC(=O)Oc4ccc(Cl)cc4)c3)nn2CC(O)CN2CCCC2)C1` (stereo not shown) [Example 163, {5-[1-(2-Hydroxy-3-pyrrolidin-1-yl-propyl)-5-methanesulfonyl-4,5,6,7-tetrahydro-1H-pyrazolo[4,3-c]pyridin-3-yl]-2-trifluoromethyl-benzyl}-carbamic acid 4-chloro-phenyl ester] was tested, and the IC50 was 380 nM.
